Measured values from PubChem BioAssay.
The list shows a part of the results. Measured potencies and affinities stand elsewhere. Inconclusive results are not listed. Activity calls are given as the source filed them. No rule for the calls is given here.

Experiment: Vibrio cholerae quorum sensing activators, luminescence (AID 686977)
Settings: V. cholerae quorum sensing reporter, 6 h, stronger effect = higher value; dose 50, dose unit µM unless noted

Structure (SMILES)	luminescence
C/C1=C2N=C(/C=C3N=C(/C(C)=C4\[N-][C@@](C)([C@@H]5N=C1[C@](C)(CCC(=O)NC[C@@H](C)OP(=O)([O-])O[C@H]1[C@@H](O)[C@@H](n6cnc7cc(C)c(C)cc76)O[C@@H]1CO)[C@H]5CC(N)=O)[C@@](C)(CC(N)=O)[C@@H]4CCC(N)=O)[C@@](C)(CC(N)=O)[C@@H]\3CCC(N)=O)C(C)(C)[C@@H]/2CCC(N)=O.[C-]#N.[Co+3]	inactive: 40 [dose 10, dose unit µg/mL]
CP(=O)(Nc1ccccn1)Oc1ccccc1 (configuration not stated)	inactive: 40
